Cyclic peptide permeability, from CycPeptMPDB

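The data file gives no further conditions (lipid, pH, time, direction or concentration), and values from different papers need not be comparable. Other peptides of the study may be missing here. Peptides that the database sets to -10, its floor, are left out.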

PAMPA measures passive passage through an artificial lipid membrane.
Permeability is in 10^-6 cm/s, converted from the database's log10 values; higher is more permeable.

SMILES,PAMPA (10^-6 cm/s)
CC(C)C[C@H]1NC(=O)[C@@H](C)N(C)C(=O)[C@@H]2CCCN2C(=O)[C@H](Cc2ccccc2)NC(=O)CN(Cc2ccccc2)C(=O)[C@@H]2CCCN2C(=O)[C@@H](CC(C)C)NC1=O,1.1
CC(C)C[C@H]1NC(=O)[C@H]2CCCN2C(=O)[C@H](CC(C)C)N(C)C(=O)[C@@H](CC(C)C)NC(=O)[C@@H](C)N(C)C(=O)[C@H](Cc2ccccc2)NC1=O,6.3
CC(C)C[C@@H]1C(=O)N[C@@H](Cc2ccccc2)C(=O)N[C@@H](Cc2ccccc2)CC(=O)N(C)[C@@H](CC(C)C)C(=O)N(C)[C@H](CC(C)C)C(=O)N2CCC[C@@H]2C(=O)N1C,5.8
CCCN1CC(=O)N(Cc2ccccc2)CC(=O)N(C)[C@H](CC(C)C)C(=O)N2CCC[C@@H]2C(=O)N[C@@H](CC(C)C)C(=O)N[C@@H](Cc2ccccc2)C(=O)N2CCC[C@H]2C1=O,0.052
CC(C)C[C@@H]1C(=O)N[C@@H](Cc2ccccc2)CC(=O)N2CCC[C@H]2C(=O)N(Cc2ccccc2)CC(=O)N[C@@H](Cc2ccccc2)C(=O)N2CCC[C@@H]2C(=O)N(C)[C@H](C)C(=O)N1C,1.6
CC(C)C[C@@H]1NC(=O)[C@@H](CC(C)C)NC(=O)[C@@H](C)NC(=O)[C@H](Cc2ccccc2)NC(=O)CN(Cc2ccccc2)C(=O)[C@H]2CCCN2C1=O,3.3
CC(C)C[C@H]1NC(=O)[C@@H]2CCCN2C(=O)[C@@H](CC(C)C)NC(=O)[C@H](CC(C)C)N(C)C(=O)[C@@H](C)NC(=O)[C@H](Cc2ccccc2)NC1=O,0.55
CCCN1CC(=O)N(C)[C@@H](CC(C)C)C(=O)N[C@@H](CC(C)C)C(=O)N2CCC[C@@H]2C(=O)N(C)[C@@H](CC(C)C)C(=O)N[C@@H](Cc2ccccc2)C1=O,11
CC(C)C[C@@H]1NC(=O)[C@@H](CC(C)C)NC(=O)[C@H](C)N(C)C(=O)[C@H](Cc2ccccc2)NC(=O)[C@@H](CC(C)C)N(C)C(=O)[C@H]2CCCN2C1=O,8.7
CC(C)C[C@@H]1NC(=O)[C@H]2CCCN2C(=O)[C@@H](CC(C)C)NC(=O)[C@@H](CC(C)C)N(C)C(=O)[C@H](C)NC(=O)[C@H](Cc2ccccc2)NC1=O,0.45
CC(C)C[C@H]1C(=O)N(C)[C@@H](CC(C)C)C(=O)N2CCC[C@H]2C(=O)N(C)[C@@H](CC(C)C)C(=O)N[C@@H](Cc2ccccc2)C(=O)N2CCC[C@@H]2C(=O)N(C)[C@H](C)C(=O)N1C,5.4
CC(C)C[C@@H]1NC(=O)[C@@H](C)N(C)C(=O)[C@H]2CCCN2C(=O)[C@H](Cc2ccccc2)NC(=O)[C@H](CC(C)C)N(C)C(=O)[C@@H]2CCCN2C(=O)[C@H](CC(C)C)N(C)C1=O,6.2
CCCN1CC(=O)N(C)[C@H](CC(C)C)C(=O)N(Cc2ccccc2)CC(=O)N2CCC[C@@H]2C(=O)N(C)[C@H](CC(C)C)C(=O)N[C@@H](Cc2ccccc2)C(=O)N2CCC[C@H]2C1=O,0.76
CCCN1CC(=O)N(C)[C@@H](CC(C)C)C(=O)N(Cc2ccccc2)CC(=O)N2CCC[C@@H]2C(=O)N[C@H](CC(C)C)C(=O)N[C@@H](Cc2ccccc2)C(=O)N2CCC[C@@H]2C1=O,3.6
CC(C)C[C@H]1NC(=O)[C@@H]2CCCN2C(=O)[C@H](CC(C)C)N(C)C(=O)[C@@H](CC(C)C)NC(=O)[C@H](C)N(C)C(=O)[C@H](Cc2ccccc2)NC1=O,7.6
CC(C)C[C@@H]1NC(=O)C[C@H](Cc2ccccc2)NC(=O)[C@H]2CCCN2C(=O)[C@H](Cc2ccccc2)NC(=O)[C@@H](CC(C)C)NC(=O)[C@H]2CCCN2C(=O)CN(Cc2ccccc2)C1=O,1.8
CC(C)C[C@@H]1NC(=O)[C@@H](C)NC(=O)[C@@H]2CCCN2C(=O)[C@H](Cc2ccccc2)NC(=O)[C@H](CC(C)C)NC(=O)[C@@H]2CCCN2C(=O)[C@H](CC(C)C)NC1=O,0.093
CCCN1CC(=O)N(C)[C@@H](CC(C)C)C(=O)N(C)[C@H](CC(C)C)C(=O)N2CCC[C@H]2C(=O)N(Cc2ccccc2)CC(=O)N[C@@H](Cc2ccccc2)C1=O,8.1
CC(C)C[C@@H]1NC(=O)[C@@H](C)NC(=O)[C@H](Cc2ccccc2)NC(=O)[C@H](CC(C)C)N(C)C(=O)[C@H]2CCCN2C(=O)[C@H](CC(C)C)N(C)C1=O,15
CC(C)C[C@@H]1NC(=O)C[C@H](Cc2ccccc2)NC(=O)[C@H]2CCCN2C(=O)[C@H](Cc2ccccc2)NC(=O)CN(Cc2ccccc2)C(=O)[C@@H]2CCCN2C(=O)[C@@H](CC(C)C)N(C)C1=O,2
CC(C)C[C@@H]1NC(=O)[C@@H](C)NC(=O)[C@H](Cc2ccccc2)NC(=O)[C@@H](CC(C)C)NC(=O)[C@H]2CCCN2C(=O)[C@H](CC(C)C)NC1=O,0.46
CC(C)C[C@@H]1C(=O)N2CCC[C@@H]2C(=O)N[C@H](CC(C)C)C(=O)N[C@@H](Cc2ccccc2)C(=O)N2CCC[C@H]2C(=O)N(C)[C@H](C)C(=O)N[C@H](CC(C)C)C(=O)N1C,4.9
CC(C)C[C@@H]1C(=O)N2CCC[C@H]2C(=O)N[C@H](CC(C)C)C(=O)N[C@@H](Cc2ccccc2)C(=O)N2CCC[C@H]2C(=O)N(C)[C@@H](C)C(=O)N(C)[C@H](CC(C)C)C(=O)N1C,0.32

Extract of 2 entries:

SMILES,PAMPA (10^-6 cm/s)
CC(C)C[C@@H]1C(=O)N[C@@H](Cc2ccccc2)C(=O)N[C@@H](Cc2ccccc2)CC(=O)N(C)[C@@H](CC(C)C)C(=O)N(C)[C@H](CC(C)C)C(=O)N2CCC[C@@H]2C(=O)N1C,5.8
CC(C)C[C@@H]1C(=O)N2CCC[C@@H]2C(=O)N[C@H](CC(C)C)C(=O)N[C@@H](Cc2ccccc2)C(=O)N2CCC[C@H]2C(=O)N(C)[C@H](C)C(=O)N[C@H](CC(C)C)C(=O)N1C,4.9

Collected by the curators of CycPeptMPDB (Li et al. 2023) from Townsend et al. 2020, doi:10.26434/chemrxiv.13335941.v1.